Test results published in patent US20250263426A1, “PDE4B INHIBITOR AND USE THEREOF” (Xizang Haisco Pharmaceutical Co., Ltd., priority 2022, published 2025).

Chains of the proteins cited; added tags and fusions are not shown. A line that says so, or that is headed by a name, gives the form on record, which may keep a tag or linker. Residues count along the entry.
UniProt Q08499, 303-809 limits assumed: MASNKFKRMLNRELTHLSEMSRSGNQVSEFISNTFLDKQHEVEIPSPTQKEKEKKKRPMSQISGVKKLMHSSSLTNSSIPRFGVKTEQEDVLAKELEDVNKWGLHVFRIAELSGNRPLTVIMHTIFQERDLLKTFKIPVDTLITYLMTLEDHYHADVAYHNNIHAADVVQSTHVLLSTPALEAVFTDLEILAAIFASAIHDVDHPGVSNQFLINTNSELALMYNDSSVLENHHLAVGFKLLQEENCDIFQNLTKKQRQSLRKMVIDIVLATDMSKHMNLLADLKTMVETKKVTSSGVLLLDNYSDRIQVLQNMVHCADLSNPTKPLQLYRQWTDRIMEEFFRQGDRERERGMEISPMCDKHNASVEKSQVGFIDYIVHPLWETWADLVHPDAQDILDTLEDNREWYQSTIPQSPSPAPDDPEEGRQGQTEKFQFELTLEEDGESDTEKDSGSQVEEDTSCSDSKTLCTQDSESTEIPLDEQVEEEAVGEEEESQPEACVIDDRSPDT
UniProt Q07343, 212-736 with tags or gaps limits assumed: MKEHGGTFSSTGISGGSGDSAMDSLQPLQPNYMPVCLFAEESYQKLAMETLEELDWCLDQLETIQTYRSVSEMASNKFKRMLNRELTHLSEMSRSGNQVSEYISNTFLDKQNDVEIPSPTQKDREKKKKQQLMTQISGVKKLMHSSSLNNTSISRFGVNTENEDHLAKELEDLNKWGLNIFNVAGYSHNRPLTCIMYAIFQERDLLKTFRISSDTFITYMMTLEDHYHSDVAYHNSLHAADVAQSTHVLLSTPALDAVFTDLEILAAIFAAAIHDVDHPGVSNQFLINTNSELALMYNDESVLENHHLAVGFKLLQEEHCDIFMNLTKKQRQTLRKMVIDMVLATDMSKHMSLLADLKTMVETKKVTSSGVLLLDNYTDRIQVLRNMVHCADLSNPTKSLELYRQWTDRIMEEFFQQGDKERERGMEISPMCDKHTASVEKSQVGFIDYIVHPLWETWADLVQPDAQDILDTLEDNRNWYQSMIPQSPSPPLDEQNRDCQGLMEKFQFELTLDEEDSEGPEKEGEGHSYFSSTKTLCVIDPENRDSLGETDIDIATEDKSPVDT

Key:
PDE4D2 = PDE4D2 (Homo sapiens (Human), UniProt Q08499); experiment: Effect of compounds on PDE4D2 activity (fluorescence polarization kit); assay type: biochemical; settings: read-out: PDE4D2 IC50
PDE4B2 = PDE4B2 (Homo sapiens (Human), UniProt Q07343); experiment: Effect of compounds on PDE4B2 activity (fluorescence polarization kit); settings: read-out: PDE4B2 IC50

Row | Structure (SMILES) | IC50 (PDE4D2) [nM] | IC50 (PDE4B2) [nM]
1 | CC(COC(N)=O)Nc1nc(N2CC=C(c3ncc(C4CC4)cn3)CC2)nc2c1[S@+]([O-])CC2 (single isomer, unassigned) | 10 to 50 | 10 to 50
2 | CCOc1cnc(C2=CCN(c3nc4c(c(N5CCC(O)C56CCC6)n3)[S+]([O-])CC4)CC2)nc1 (single isomer, unassigned) | < 10 | < 10
3 | [O-][S+]1CCCc2nc(N3CC=C(c4ncc(C5CC5)cn4)CC3)nc(N3CCC(O)C34CCC4)c21 (single isomer, unassigned) | < 10 | < 10
4 | [O-][S+]1CCc2nc(N3CC=C(c4ncc(C5CC5)cn4)CC3)nc(N3CCC(CO)C34CCC4)c21 (single isomer, unassigned) | < 10 | < 10
